Measurements: patent publication US7405223B2, “Treating allergic and inflammatory conditions” (priority 2000, dated 2008)

With `Clc1ccc2c(c1)CCc1cccnc1C2=C1CCNCC1` [desloratadine] the “most frequently reported adverse event” value (7.5 mg once daily, occurred exclusively in women of both races) was “Headache” and the safety and tolerability (7.5 mg orally once daily for 14 days) was “safe and well tolerated”.
